Amino acid sequences for entries named in this document (tags omitted). Residues count along the entry.
UniProt Q96RI1, 262-486 limits assumed: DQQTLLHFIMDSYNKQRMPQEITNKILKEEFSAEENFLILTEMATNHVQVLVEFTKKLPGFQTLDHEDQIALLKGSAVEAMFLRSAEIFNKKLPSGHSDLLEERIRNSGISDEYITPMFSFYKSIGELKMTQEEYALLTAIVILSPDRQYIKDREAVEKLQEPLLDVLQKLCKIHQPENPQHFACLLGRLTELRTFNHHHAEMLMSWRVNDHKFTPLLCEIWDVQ

This assay has as its target human FXR (Homo sapiens, UniProt Q96RI1). Description: transient human FXR/Gal4-luciferase reporter assay. To be noted: read-out: FXR EC50; Gal4-hFXR reporter in HEK293 cells; relative to 8 μM GW-4064. As for the experimental part: The exemplified compounds of the present invention were tested in the transient human FXR/Gal4-luciferase reporter assay, and assay results were reported in Table 1 together with other analytical data.
A Gal4-hFXR fusion construct reporter system was used as the primary assay to characterize compound activity. A construct including 5 copies of the Gal4 promoter response element upstream of a firefly luciferase reporter cDNA was stably expressed in HEK293 cells. This reporter cell line was maintained in Dulbecco's Modified Eagle's medium (DMEM; Gibco) supplemented with 1% penicillin-streptomycin (P/S) solution, 500 μg/mL Zeocin and 10% charcoal/dextran-treated fetal bovine serum (cs-FBS) at 37° C. in a humidified 5% CO2 atmosphere. Another plasmid was constructed in which the human cytomegalovirus promoter in the pcDNA3.1 vector directs the expression of the cDNA encoding a fusion protein comprised of the DNA binding domain from the Gal4 transcription factor fused to the ligand binding domain from human FXR.
The day prior to transfection, the reporter cells in culture are detached from the plate with trypsin and plated into a T75 flask at a sufficient density to achieve approximately 90% confluence the next morning. […] This protocol can be scaled up, and the transiently transfected cells can be cryopreserved in an assay-ready format.
For compound testing, 100 nL of the compounds (serial dilutions in DMSO) are dispensed with an Echo acoustic dispenser (Labcyte) into the wells of a Corning/Costar clear bottom 384-well white plate. The transfected cells are harvested, counted, and diluted such that 10-25,000 cells in 25 μL are plated into each well of the 384-well compound assay plate. […] The next morning 25 μL of Steady-Glo (Promega) are added to each well of the plate, the mixture is incubated for 15 min. with shaking, and luminescence is measured on an Envision (Perkin Elmer) plate reader. […]
Turning to `O=C(O)c1ccc2cc(N3CCC4(CC(=Cc5c(-c6c(Cl)cccc6Cl)noc5C5CC5)C4)C3)ccc2n1` (stereo not drawn), the concentration giving a half-maximal response (EC50) worked out at 0.021 µM.
The figure for `Cn1cc(C(=O)O)c2ccc(N3CCC4(CC(=Cc5c(-c6c(Cl)cccc6Cl)noc5C5CC5)C4)C3)nc21` (stereo not drawn) is 0.029 µM.
With `Cn1cc(C(=O)O)c2ccc(N3CCC4(CC(=Cc5c(-c6c(Cl)cccc6Cl)noc5C5CC5)C4)C3)cc21` (stereo not drawn) the figure was 0.033 µM.

Values taken from patent publication US11370785B2, “Multicyclic compounds as farnesoid X receptor modulators” (BRISTOL-MYERS SQUIBB COMPANY, priority 2017, dated 2022).
